# Laboratory results published in patent US20210379151A1 (ACADEMIA SINICA, priority 2018, published 2021).
# What was measured:
# [1] = mouse, in vivo
# [2] = mouse, in vivo; remark: listed apart in the source
# S100β = conditions: in vivo
# [3] = pig, in vivo
# [4] = system: neuroinflammation-related genes; experiment: Real time quantitative PCR of neuroinflammation markers; type: in vivo, mouse; conditions: for gene expression of Il6: 4 hours
# Description: GAPDH was used an internal control.
# Argaw et al., J. Clin. Invest. 2012,122 (7), 2454-2468 (2012). […] Kaya et al., J. Cereb. Blood Flow Metab., 25 (9), 1111-1118 (2005). […] Skelly et al., PLoS One, 8 (7), 1-20 (2013); and Monnet-Tschudi et al., Curr. Protoc. Toxicol., No. SUPPL. 50, 1-20 (2011). […] Cryolesion and LPS were both used as positive controls.
substance,measurement,setting,value
VEGF,blood chemistry for liver and kidney function,[1],no adverse changes
same,blood pressure,[2],no notable change
same,mouse plasma S100β,S100β,no significant change
same,blood pressure compared to control,[3],no clear changes
same,clinical observation,[3],"rapid, but temporary, flushing reaction in one pig"
same,expression of neuroinflammation genes compared to controls,[4]; 45 minutes following VEGF administration,no elevation
same,gene expression of Il6,[4]; single VEGF,not single VEGF
same,gene expression of Il6,[4]; treatment groups utilising multi-VEGF,increased after 4 hours
same,"expression of Tnfa, Ccl2 and Cxcl1",[4]; 24 hours after the treatment,moderately increased
same,"expression of Tnfa, Ccl2 and Cxcl1",[4]; four hours after VEGF treatment,unchanged
same,expression of neuroinflammation-related genes,"[4]; mouse brain, four or 24 hours",moderately increased
